Results taken from patent US3980522A, “Production of a new antibiotic, calvatic acid” (Zaidan Hojin Biseibutsu Kagaku Kenkyu Kai, priority 1973, dated 1976).
Converted amounts (≈) assume the structure as drawn. Read-outs that look alike come from different tables or passages of the source.

What was measured:
[1] = system: Mycobacterium smegmatic ATCC 607; test: Antimicrobial spectrum, agar dilution MIC; assay type: cell-based; details: ATCC607, agar dilution method
[2] = system: Mycobacterium phlei; test: Antimicrobial spectrum, agar dilution MIC; assay type: cell-based; details: Mycolicibacterium phlei, agar dilution method
[3] = system: Pseudomonas fluorescens; test: Antimicrobial spectrum, agar dilution MIC; assay type: cell-based; details: agar dilution method
[4] = system: Bacillus cereus ATCC 10702; test: Antimicrobial spectrum, agar dilution MIC; assay type: cell-based; details: ATCC10702, agar dilution method
[5] = system: Candida albicans 3147; test: Antimicrobial spectrum, agar dilution MIC; assay type: cell-based; details: agar dilution method
[6] = Solubility in solvents; assay type: physicochemical
[7] = system: Pseudomonas aeruginosa A3; test: Antimicrobial spectrum, agar dilution MIC; assay type: cell-based; details: agar dilution method
[8] = system: Trichlphyton asteroides; test: Antimicrobial spectrum, agar dilution MIC; assay type: cell-based; details: agar dilution method
[9] = system: Klebsiella pneumoniae PCI 602; test: Antimicrobial spectrum, agar dilution MIC; assay type: cell-based; details: PCI602, agar dilution method
[10] = system: Bacillus subtilis NRRL B-558; test: Antimicrobial spectrum, agar dilution MIC; assay type: cell-based; details: NRRLB558, agar dilution method
[11] = system: fungi; test: Antimicrobial activity, agar dilution, summary; assay type: cell-based; details: agar dilution method
[12] = system: Escherichia coli NIHJ; test: Antimicrobial spectrum, agar dilution MIC; assay type: cell-based; details: agar dilution method
[13] = system: Cryptococcus neoformans NI 7496; test: Antimicrobial spectrum, agar dilution MIC; assay type: cell-based; details: NI7496, agar dilution method
[14] = system: Yoshida sarcoma; test: Inhibition of growth of Yoshida sarcoma in cell culture; details: Rattus norvegicus, read-out: inhibition of growth of Yoshida sarcoma in cell culture
[15] = system: Aeromonas salmonicida (red disease); test: Growth inhibition of fish pathogen; assay type: cell-based
[16] = system: Gram-negative bacteria; test: Antimicrobial activity, agar dilution, summary; assay type: cell-based
[17] = system: Saccharomyces cerevisiae; test: Antimicrobial spectrum, agar dilution MIC; assay type: cell-based; details: agar dilution method
[18] = system: Escherichia coli K-12; test: Antimicrobial spectrum, agar dilution MIC; assay type: cell-based; details: K12
[19] = system: Shigella sonnei 191-66; test: Antimicrobial spectrum, agar dilution MIC; assay type: cell-based; details: 19166, agar dilution method
[20] = system: Vibrio anguillarun NCBM 6; test: Antimicrobial spectrum, agar dilution MIC; assay type: cell-based; details: NCBM6, agar dilution method
[21] = system: Helminthosporium oryzae; test: Antimicrobial spectrum, agar dilution MIC; assay type: cell-based; details: Bipolaris oryzae
[22] = system: Staphylococcus aureus Smith; test: Antimicrobial spectrum, agar dilution MIC; assay type: cell-based
[23] = system: Proteus vulgaris OX 19; test: Antimicrobial spectrum, agar dilution MIC; assay type: cell-based; details: OX19
[24] = system: Aeromonas salmonicida ATCC 14174; test: Antimicrobial spectrum, agar dilution MIC; assay type: cell-based; details: ATCC14174, agar dilution method
[25] = system: Staphylococcus aureus Terajima; test: Antimicrobial spectrum, agar dilution MIC; assay type: cell-based; details: agar dilution method
[26] = system: Sarcina lutea PCI 1001; test: Antimicrobial spectrum, agar dilution MIC; assay type: cell-based; details: Micrococcus luteus, PCI1001, agar dilution method
[27] = system: Salmonella typhi T-63; test: Antimicrobial spectrum, agar dilution MIC; assay type: cell-based; details: Salmonella enterica
[28] = system: Candida Yu-1200; test: Antimicrobial spectrum, agar dilution MIC; assay type: cell-based; details: YU1200, agar dilution method
[29] = physchem; details: water
[30] = system: red disease (Aeromonas sp.) of loaches; test: Preventive and curative effect against red disease of loaches; assay type: in vivo
[31] = system: Vibrio anguillarum; test: Growth inhibition of fish pathogen; assay type: cell-based
[32] = system: Gram-positive bacteria; test: Antimicrobial activity, agar dilution, summary; assay type: cell-based
[33] = system: Pyricularia oryzae; test: microbe, parasite or virus in culture; assay type: cell-based
[34] = system: Candida krusei NI 7492; test: Antimicrobial spectrum, agar dilution MIC; assay type: cell-based; details: Pichia kudriavzevii, NI7492, agar dilution method
[35] = system: L-1210 mouse leukemia; test: Survival of mice inoculated with L-1210 mouse leukemia; details: for survival time, % of the control: 1 × 10^5 cells inoculated i.p.
[36] = system: Pellicularia filamentosa; test: Antimicrobial spectrum, agar dilution MIC; assay type: cell-based; details: agar dilution method
[37] = system: Micrococcus flavus FDA 16; test: Antimicrobial spectrum, agar dilution MIC; assay type: cell-based; details: FDA16
[38] = system: Proteus rettgeri GN 311; test: Antimicrobial spectrum, agar dilution MIC; assay type: cell-based; details: Providencia rettgeri, GN311, agar dilution method
[39] = system: Candida pseudotropicalis NI 7494; test: Antimicrobial spectrum, agar dilution MIC; assay type: cell-based; details: Kluyveromyces marxianus, NI7494, agar dilution method
[40] = system: Corynebacterium bovis 1810; test: Antimicrobial spectrum, agar dilution MIC; assay type: cell-based
[41] = system: test microorganisms; test: Antimicrobial activity of methyl ester, agar dilution, summary; assay type: cell-based; details: agar dilution method
[42] = system: Pseudomonas A3; test: Antimicrobial spectrum, agar dilution MIC
[43] = system: Pseudomonas No. 12; test: Antimicrobial spectrum, agar dilution MIC
[44] = system: Escherichia coli ML 1629; test: Antimicrobial spectrum, agar dilution MIC; assay type: cell-based; details: ML1629, agar dilution method

## N#CN=[N+]([O-])c1ccc(C(=O)O)cc1 [calvatic acid, p-carboxyphenylazoxycarbonitrile]
[1]
  MIC: > 100 µg/mL
[2]
  MIC: > 100 µg/mL
[3]
  MIC: > 100 µg/mL
[4]
  MIC: 3.12 µg/mL (≈ 16.3 µM)
[5]
  MIC: > 100 µg/mL
[6]; hexane
  solubility: insoluble
[6]; methanol, ethanol, butanol, ethyl acetate, butyl acetate, dimethyl sulfoxide and alkaline water
  solubility: soluble
[6]; methanol, ethanol, propanol, butanol, dimethyl sulfoxide, acetone (b7), alkaline water
  solubility: soluble
[7]
  MIC: > 100 µg/mL
[8]
  MIC: > 100 µg/mL
[9]
  MIC: 12.5 µg/mL (≈ 65.4 µM)
[10]
  MIC: 12.5 µg/mL (≈ 65.4 µM)
[11]
  antimicrobial activity against the fungi: weak
[12]
  MIC: 6.25 µg/mL (≈ 32.7 µM)
[13]
  MIC: > 100 µg/mL
[14]
  inhibition at 1.56 µg/mL: ~50%
[15]
  inhibits the growth of Aeromonas salmonicida (red disease): inhibits especially the growth
[16]; agar dilution method
  antimicrobial activity against the Gram-negative bacteria: weak
[17]
  MIC: > 100 µg/mL
[18]; Escherichia coli K-12, agar dilution method, read-out: MIC
  MIC: 25 µg/mL (≈ 131 µM)
[19]
  MIC: 6.25 µg/mL (≈ 32.7 µM)
[20]
  MIC: < 0.78 µg/mL
[21]
  MIC: > 100 µg/mL
[22]; Staphylococcus aureus
  MIC: 6.25 µg/mL (≈ 32.7 µM)
[23]; Proteus vulgaris
  MIC: 6.25 µg/mL (≈ 32.7 µM)
[24]
  MIC: < 0.78 µg/mL
[25]
  MIC: 1.56 µg/mL (≈ 8.16 µM)
[26]
  MIC: 3.12 µg/mL (≈ 16.3 µM)
[27]
  MIC: 12.5 µg/mL (≈ 65.4 µM)
[28]
  MIC: > 100 µg/mL
[29]
  pKa: 3.2
[30]; 5 mg./L
  effect on infection of the fish by red disease: prevented but not cured
[30]; 10 mg./L
  effect on red disease: apparently cured
[30]; Expt. 1, 5 mg./L in water, 12 loaches, 3 breeding days (control 0 mg./L: 100)
  Percent of death: 33%
[30]; Expt. 1, 5 mg./L, 3 breeding days
  survivors: 67%
[30]; Expt. 1, after 5 mg./L
  time to death of all survivors after transfer to water containing no calvatic acid: ≤ 4 days
[30]; Expt. 2, 10 mg./L in water, 20 loaches, 10 breeding days (control 0 mg./L, 7 days: 100)
  Percent of death: 15%
[30]; Expt. 2, 10 mg./L, 10 breeding days
  survivors: 85%
[30]; Expt. 2, after 10 mg./L
  survival of all survivors after transfer to water containing no calvatic acid: more than 30 days
[31]
  inhibits the growth of Vibrio anguillarum: inhibits especially the growth
[32]; agar dilution method
  antimicrobial activity against the Gram-positive bacteria: strong
[33]
  MIC: > 100 µg/mL
[34]
  MIC: 100 µg/mL (≈ 523 µM)
[35]; 100 mcg./mouse × 10, intraperitoneal
  survival time, % of the control: 138%
[35]; 200 mcg./mouse × 10, intraperitoneal
  survival time, % of the control: 147%
[35]; 400 mcg./mouse × 10, intraperitoneal
  survival time, % of the control: 153%
[35]; mouse, in vivo
  inhibition of growth of L-1210 mouse leukemia: inhibited the growth
[36]
  MIC: 100 µg/mL (≈ 523 µM)
[37]; Micrococcus flavus
  MIC: 3.12 µg/mL (≈ 16.3 µM)
[38]
  MIC: 100 µg/mL (≈ 523 µM)
[39]
  MIC: > 100 µg/mL
[40]; Corynebacterium bovis, 1810
  MIC: 3.12 µg/mL (≈ 16.3 µM)

## COC(=O)c1ccc([N+]([O-])=NC#N)cc1 [calvatic acid methyl ester]
[1]
  MIC: 3.12 µg/mL (≈ 15.2 µM)
[9]
  MIC: 6.25 µg/mL (≈ 30.5 µM)
[12]
  MIC: 6.25 µg/mL (≈ 30.5 µM)
[16]; methyl ester vs calvatic acid
  antimicrobial activity against the Gram-negative bacteria compared with calvatic acid: clearly stronger than that of calvatic acid
[18]; Escherichia coli
  MIC: 6.25 µg/mL (≈ 30.5 µM)
[41]
  antimicrobial activity: strong antimicrobial activity
[22]; Staphylococcus aureus Smith, agar dilution method, read-out: MIC
  MIC: 6.25 µg/mL (≈ 30.5 µM)
[23]; Proteus vulgaris OX 19, agar dilution method, read-out: MIC
  MIC: 3.12 µg/mL (≈ 15.2 µM)
[42]
  MIC: 50 µg/mL (≈ 244 µM)
[26]
  MIC: 6.25 µg/mL (≈ 30.5 µM)
[27]
  MIC: 6.25 µg/mL (≈ 30.5 µM)
[43]
  MIC: > 50 µg/mL
[32]; methyl ester vs calvatic acid
  antimicrobial activity against the Gram-positive bacteria compared with calvatic acid: almost the same as that of calvatic acid
[37]; Micrococcus flavus FDA 16, agar dilution method, read-out: MIC
  MIC: 3.12 µg/mL (≈ 15.2 µM)
[40]; Corynebacterium bovis 1810, agar dilution method, read-out: MIC
  MIC: 3.12 µg/mL (≈ 15.2 µM)
[44]
  MIC: 12.5 µg/mL (≈ 60.9 µM)
